{"source": "patent US20230248723A1", "about": "“PYRROLO[2,3-B]PYRAZINE COMPOUNDS AS CCCDNA INHIBITORS FOR THE TREATMENT OF HEPATITIS B VIRUS (HBV) INFECTION” (Hoffmann-La Roche Inc., priority 2017, published 2023)", "assay_type_in_all_cases": "cell-based", "key": {"[1]": {"test_system": "HBV DNA", "test": "HBV DNA in culture medium of HBV-infected PHH", "details": "patient-derived HBV GT D, MOI 40, treatment from day 3, day 10 pi", "description": "FIG. 8: Establishment of dPCR assay for cccDNA quantification. (A) Detection ranges of TaqMan-PCR assay limits accurate determination of cccDNA copy number from 96- and 384-well plate. A 3.2-kb, linearized plasmid HBV is used as a standard curve for relative quantification of HBV DNA by TaqMan-PCR. Plasmid was diluted 10-fold (from 2×10^9 copies/μl to 2×10^3 copies/μl) and HBV DNA was amplified using core primers (Werle-Lapostolle et al., 2004); the LLOD of this assay (˜1×10^3 copies/μl) overlaps with the lower levels of cccDNA present in cells grown in 384-well plate. The total amount of cccDNA in HLC and PHH in 384-well plate is ˜1,200-12,000 copies/well (assuming 40% infection rate of ˜30K cells seeded, and on average, there is 0.1-1 cccDNA copy/cell) (Nassal, 2015). […] In contrast to TaqMan-PCR (relative quantification method), digital PCR (dPCR) is an absolute quantification method without the need of standard curve. […] Low signal was detected with cccDNA primer, indicating non-specific amplification of RC-DNA. […] At day 10 pi, culture media were harvested and measured for HBV DNA, HBsAg, and HBeAg. […] Cells were lysed and treated with T5 exonuclease, cccDNA was then measured by dPCR on QuantStudio 12K Flex Real-Time PCR System (AB); 4 subarrays (256 through-holes) were used for each sample. […] Cells were harvested at day 10 pi; viral markers and albumin were measured from culture medium. […]"}, "[2]": {"test_system": "HBsAg", "test": "HBsAg, multiplex assay, HBV-infected PHH", "details": "patient-derived HBV GT D, MOI 40, treatment from day 3, day 10 pi", "description": "(§1) Fresh primary human hepatocytes (PXB-PHH) harvested from humanized mice (uPA/SCID mice)—herein called PHH—were obtained from PhoenixBio Co., Ltd (Japan). Cells were seeded on a collagen I-coated plate at the following cell density: 35,000 cells/well (384-well), 70,000 cells/well (96-well), or, 400,000 cells/well (24-well) in modified hepatocyte clonal growth medium (dHCGM). dHCGM is a DMEM medium containing 100 U/ml Penicillin, 100 μg/ml Streptomycin, 20 mM Hopes, 44 mM NaHCO3, 15 μg/ml L-proline, 0.25 μg/ml insulin, 50 nM Dexamethazone, 5 ng/ml EGF, 0.1 mM Asc-2P, 2% DMSO and 10% FBS (Ishida et al., 2015). Cells were cultured at 37° C. incubator in a humidified atmosphere with 5% CO2. […]\n(§2) Following 4 day of maturation with 1 μM MB-1, HLC were incubated with HBV (purified from CHB individuals) at multiplicity of infection (MOI) 10-40 without PEG for 24 hr; virus inoculum was removed the following day. […] Compound effect on HBV and cellular toxicity was measured by multiplex assay (HBsAg, HBeAg, albumin), branched DNA (pgRNA), or digital PCR (cccDNA) and depicted as % of inhibition compared to DMSO control. […]\n(§3) A custom, Luminex-based multiplex assay that simultaneously measured HBeAg, albumin, and HBsAg was developed by Radix BioSolutions (Georgetown, Tex.). […] Samples were read on FlexMAP 3D (Luminex) and analyzed by Genedata software."}, "[3]": {"test_system": "cccDNA", "test": "cccDNA assay (digital PCR), HBV-infected PHH", "details": "patient-derived HBV GT D, MOI 40, treatment from day 3, day 10 pi, dPCR", "description": "as §1, §2\nHBV-infected cells (in 384- or 96-well plate) were lysed with Cells-to-CT Lysis Reagents according to manufacturer's instruction (Thermo Scientific). […] Digital PCR assay was run on QuantStudio 12K Flex (AB) and data was analyzed by Digital Suite Software (AB)."}, "[4]": {"test_system": "HBeAg", "test": "HBeAg, multiplex assay, HBV-infected PHH", "details": "patient-derived HBV GT D, MOI 40, treatment from day 3, day 10 pi", "description": "as §1, §2, §3"}}}
{"substance": "Roferon: marketed HBV drug, interferon-α, an immunomodulator [reference compound]", "values": [{"measurement": "effect on HBV DNA", "setting": "[1]", "result": "highly potent"}, {"measurement": "effect on HBsAg (other viral markers)", "setting": "[2]", "result": "no effect"}, {"measurement": "effect on cccDNA (other viral markers)", "setting": "[3]", "result": "no effect"}, {"measurement": "effect on HBeAg (other viral markers)", "setting": "[4]", "result": "no effect"}]}
